Results on one molecule are retold here after patent publication US8828931B2, “Bifunctional molecules for inhibiting HIV entry” (priority 2008, dated 2014).

The test system of the assay is HIV-1 IIIB-mediated cell fusion (H9/HIV-1 IIIB effector cells, MT-2 target cells). The conditions noted are these: H9/HIV-1 IIIB and MT-2 cells, dye transfer. Here is the method:
HIV-1-mediated cell-cell fusion was determined by a dye transfer assay (Lu H et al. J Virol Methods 107:155-161, 2003) using Calcein AM-labeled HIV-1IIIB chronically infected H9 (H9/HIV-1 IIIB) cells as effector cells and MT-2 cells as target cells.

Take `CC[C@H](C)[C@H](NC(=O)[C@H](CC(C)C)NC(=O)[C@H](CO)NC(=O)[C@H](Cc1c[nH]cn1)NC(=O)[C@@H](NC(=O)[C@H](CC(C)C)NC(=O)[C@H](CO)NC(=O)[C@@H](NC(=O)[C@H](Cc1ccc(O)cc1)NC(=O)[C@H](CC(N)=O)NC(=O)[C@H](CC(N)=O)NC(=O)[C@@H](NC(=O)[C@H](CCC(=O)O)NC(=O)[C@H](CCCNC(=N)N)NC(=O)[C@H](CC(=O)O)NC(=O)[C@H](Cc1c[nH]c2ccccc12)NC(=O)[C@H](C)NC(=O)[C@H](CCSC)NC(=O)[C@H](Cc1c[nH]c2ccccc12)NC(=O)[C@@H](NC(=O)[C@@H](N)[C@@H](C)O)[C@@H](C)O)[C@@H](C)CC)[C@@H](C)O)[C@@H](C)CC)C(=O)N[C@@H](CCCNC(=N)N)C(=O)N[C@@H](CCCNC(=N)N)C(=O)N[C@@H](CO)C(=O)N[C@@H](CCC(N)=O)C(=O)N[C@@H](CC(N)=O)C(=O)N[C@@H](CCC(N)=O)C(=O)N[C@@H](CCC(N)=O)C(=O)N[C@@H](CCC(=O)O)C(=O)N[C@@H](CCCCN)C(=O)N[C@@H](CC(N)=O)C(=O)N[C@@H](CCC(=O)O)C(=O)N[C@@H](CCC(N)=O)C(=O)N[C@@H](CCC(=O)O)C(=O)N[C@@H](CC(C)C)C(=O)N[C@@H](CC(C)C)C(=O)N[C@@H](CCC(=O)O)C(=O)N[C@@H](CC(C)C)C(=O)N[C@@H](CC(=O)O)C(=O)N[C@@H](CCCCN)C(=O)N[C@@H](Cc1c[nH]c2ccccc12)C(=O)N[C@@H](C)C(=O)N[C@@H](CO)C(=O)N[C@@H](CC(C)C)C(=O)N[C@@H](CC(C)C)C(=O)N[C@@H](Cc1c[nH]c2ccccc12)C(=O)N[C@@H](CC(N)=O)C(=O)N[C@@H](Cc1c[nH]c2ccccc12)C(=O)N[C@@H](Cc1ccccc1)C(=O)O` [T1144-C10]: for the setting “read-out: IC50, concentration for inhibiting HIV-1 IIIB-mediated cell fusion”, the IC50 stood at 16.8 nM. In addition, under “read-out: IC90, concentration for inhibiting HIV-1 IIIB-mediated cell fusion”, the IC90 came out at 49.7 nM.
